Reference: patent US7749694
pKd: −log10 of the molar value.

Target: pertactin ectodomain (Prn-E) (Bordetella (species not stated))
Assay: isothermal titration calorimetry (ITC); too weak to measure reliably, so the value is an estimate

Substance: Mtd-M1
- pKd: < 3.70
